This assay concerns the target human neurokinin-1 receptor (NK1R) (Homo sapiens, UniProt P25103). The assay is described as follows: Binding assay of human NK1R expressed in COS or CHO cells (125I-substance P competition). The settings on record: 125I-substance P binding to human NK1R expressed in COS or CHO cells. Here is the method: Receptor Expression in COS: To express the cloned human neurokinin-1 receptor (NK1R) transiently in COS, the cDNA for the human NK1R was cloned into the expression vector pCDM9 which was derived from pCDM8 (INVITROGEN) by inserting the ampicillin resistance gene (nucleotide 1973 to 2964 from BLUESCRIPT SK+) into the Sac II site. Transfection of 20 ug of the plasmid DNA into 10 million COS cells was achieved by electroporation in 800 ul of transfection buffer (135 mM NaCl, 1.2 mM CaCl2, 1.2 mM MgCl2, 2.4 mM K2HPO4, 0.6 mM KH2PO4, 10 mM glucose, 10 mM HEPES pH 7.4) at 260 V and 950 uF using the IBI GENEZAPPER (1131, New Haven, Conn.). […]
Assay Protocol using COS or CHO: The binding assay of human NK1R expressed in either COS or CHO cells is based on the use of ^125I-substance P (^125I-SP, from DU PONT, Boston, Mass.) as a radioactively labeled ligand which competes with unlabeled substance P or any other ligand for binding to the human NK1R. […] The bound radioactivity was separated from unbound radioactivity by GF/C filter (BRANDEL, Gaithersburg, Md.) which was pre-wetted with 0.1% polyethylenimine. The filter was washed with 3 ml of wash buffer (50 mM Tris pH 7.5, 5 mM MnCl2, 150 mM NaCl) three times and its radioactivity was determined by gamma counter. […] The extracellular radioactivity is removed by washing with phosphate buffered saline. […]

Chains of the proteins cited; added tags and fusions are not shown.
UniProt P25103, whole entry: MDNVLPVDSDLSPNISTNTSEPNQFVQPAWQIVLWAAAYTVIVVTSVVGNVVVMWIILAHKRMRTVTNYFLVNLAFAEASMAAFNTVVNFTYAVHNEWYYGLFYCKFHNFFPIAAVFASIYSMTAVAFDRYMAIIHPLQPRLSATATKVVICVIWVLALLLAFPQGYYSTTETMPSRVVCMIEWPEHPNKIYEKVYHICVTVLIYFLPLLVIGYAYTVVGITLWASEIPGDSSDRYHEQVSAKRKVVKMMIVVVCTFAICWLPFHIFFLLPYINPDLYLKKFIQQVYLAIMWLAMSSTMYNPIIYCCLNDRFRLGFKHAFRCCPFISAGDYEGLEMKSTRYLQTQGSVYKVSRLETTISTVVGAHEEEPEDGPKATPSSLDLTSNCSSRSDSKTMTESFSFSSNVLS

By IC50 is commonly meant the concentration that inhibits the measured activity by half. The low end stands for greater potency in that assay, the high end for weaker potency in that assay.

For the compound `Cc1ccccc1[C@H]1[C@@H]2CN(C3=CC(=O)CC3)C[C@H]2CC[C@@H]1O[C@@H](CO)c1cc(C(F)(F)F)cc(C(F)(F)F)c1`, the IC50 was 2.1 nM.
`Cc1ccccc1[C@H]1[C@@H]2CN(C(=O)N(C)C)C[C@H]2CC[C@@H]1O[C@@H](CO)c1cc(C(F)(F)F)cc(C(F)(F)F)c1` registered an IC50 of 3.1 nM.

Source of the values: patent publication US8124633B2, “Hydroxymethyl ether hydroisoindoline tachykinin receptor antagonists” (Merck Sharp & Dohme Corp., priority 2007, dated 2012).
